Key:
[1] = test system: panel of 55 breast cancer cell lines; experiment: Cell growth inhibition assay (Cell Titer Glo, 72 h, 9 doses; GI50, TGI, LC50); format: cell-based, human; details: across the cell line panel
[2] = test system: ERBB2-positive breast cancers; details: cited from earlier work

| Substance | variability in cell line response [1] | clinical effect with co-administration of IL-12 ([2]; Phase I clinical trials, patients with HER2-overexpressing tumors) | patients achieving any therapeutic benefit ([2]; patients with ERBB2-positive breast cancers) [%] |
| --- | --- | --- | --- |
| cetuximab | variability in cell line response was minimal |  |  |
| trastuzumab |  | potentiated by the co-administration of IL-12 | < 50 |
